The target of this experiment is T1, human mu opioid receptor (Homo sapiens, UniProt P35372).
T1 construct: expressed in transfected cells; host or cells: CHO-K1
Nature of the experiment: Radioligand binding assay, human mu opioid receptor. The note with it: displacement of [3H]-Diprenorphine.

The chains behind the UniProt entries cited, without tags or fusion partners.
UniProt P35372, whole entry: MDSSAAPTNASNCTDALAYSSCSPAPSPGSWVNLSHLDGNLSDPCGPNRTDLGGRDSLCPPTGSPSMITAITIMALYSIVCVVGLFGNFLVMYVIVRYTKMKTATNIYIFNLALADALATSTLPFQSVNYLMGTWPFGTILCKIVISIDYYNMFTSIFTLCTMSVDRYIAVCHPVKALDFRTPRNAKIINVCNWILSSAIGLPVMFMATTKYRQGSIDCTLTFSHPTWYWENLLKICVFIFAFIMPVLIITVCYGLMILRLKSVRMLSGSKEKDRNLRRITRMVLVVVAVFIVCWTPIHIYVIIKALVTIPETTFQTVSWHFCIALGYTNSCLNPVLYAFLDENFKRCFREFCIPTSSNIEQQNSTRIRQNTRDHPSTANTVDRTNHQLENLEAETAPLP

Data on 1 molecule can be found in patent US10745394B2, “8-azabicyclo[3.2.1]octane compounds as mu opioid receptor antagonists” (priority 2006, dated 2020).

Structures are written as SMILES.

In turn, `NC(=O)c1cccc([C@H]2C[C@H]3CC[C@@H](C2)N3CCN(CCc2ccccc2)C(=O)CO)c1` [Example 59, 3-endo-(8-{2-[(2-hydroxyacetyl)phenethylamino]-ethyl}-8-azabicyclo[3.2.1]oct-3-yl)benzamide] came in with a pKi of 9.2.

One may read the pKi as the Ki on a negative log10 scale, so that one unit is a factor of ten. A higher pKi goes with a small Ki.
